{"source": "patent US6936585B2", "about": "“Corticotropin releasing factor 2 receptor agonists” (priority 2002, dated 2005)", "key": {"CRF1R": {"biological_target": "T1, CRF1R (Homo sapiens, UniProt P34998)", "T1 sequence (P34998 24-415)": "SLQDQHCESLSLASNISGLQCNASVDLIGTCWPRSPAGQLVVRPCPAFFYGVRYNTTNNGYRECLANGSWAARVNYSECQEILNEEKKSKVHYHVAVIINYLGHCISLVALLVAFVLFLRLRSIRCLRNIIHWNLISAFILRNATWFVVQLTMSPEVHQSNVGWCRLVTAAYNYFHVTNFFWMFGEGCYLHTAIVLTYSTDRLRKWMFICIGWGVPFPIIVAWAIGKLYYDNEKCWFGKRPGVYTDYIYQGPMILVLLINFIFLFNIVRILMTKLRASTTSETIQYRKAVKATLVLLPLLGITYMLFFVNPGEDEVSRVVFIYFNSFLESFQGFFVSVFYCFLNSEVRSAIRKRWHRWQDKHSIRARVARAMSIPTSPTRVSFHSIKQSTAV", "test": "CRF1R agonist activation (EC50 / Emax), called comparative CRF binding", "assay_type": "cell-based", "outline": "(§1)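 Cells expressing full-length human CRF1R or CRF2R were exposed to peptide or vehicle control, and receptor activation was gauged as cAMP induction. cAMP was measured in cell lysates or via a cAMP-responsive element driving a reporter gene such as luciferase, CAT, GFP or alkaline phosphatase.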"}, "CRF2R": {"biological_target": "T2, CRF2R (Homo sapiens, UniProt Q13324)", "T2 sequence (Q13324 1-411)": "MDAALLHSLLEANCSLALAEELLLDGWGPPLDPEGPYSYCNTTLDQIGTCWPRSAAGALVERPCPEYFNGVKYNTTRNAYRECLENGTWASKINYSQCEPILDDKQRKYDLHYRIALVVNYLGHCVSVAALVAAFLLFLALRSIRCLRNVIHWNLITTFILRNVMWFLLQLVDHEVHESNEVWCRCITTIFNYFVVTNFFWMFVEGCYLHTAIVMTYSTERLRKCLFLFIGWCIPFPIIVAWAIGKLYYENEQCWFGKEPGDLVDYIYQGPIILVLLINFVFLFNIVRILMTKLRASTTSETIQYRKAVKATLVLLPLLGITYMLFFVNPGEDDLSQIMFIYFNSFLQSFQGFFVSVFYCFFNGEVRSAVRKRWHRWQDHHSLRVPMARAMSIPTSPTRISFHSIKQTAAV", "test": "CRF2R agonist activation (EC50 / Emax), called comparative CRF binding", "assay_type": "cell-based", "outline": "as §1"}}, "note": "Where two headings read alike, the source gives them in different places.", "data": [{"smiles": "CC[C@H](C)[C@H](NC(=O)[C@@H](NC(=O)[C@H](CC(=O)O)NC(=O)[C@H](CC(C)C)NC(=O)[C@H](CC(C)C)NC(=O)[C@H](CC(C)C)NC(=O)[C@H](CCCNC(=N)N)NC(=O)[C@H](CC(N)=O)NC(=O)[C@H](CC(N)=O)NC(=O)[C@H](C)NC(=O)[C@H](C)NC(=O)[C@H](CCC(N)=O)NC(=O)[C@H](CCC(N)=O)NC(=O)[C@H](CCCCN)NC(=O)[C@H](CCC(=O)O)NC(=O)[C@H](CCCCN)NC(=O)[C@H](CCC(=O)O)NC(=O)[C@H](CCC(N)=O)NC(=O)[C@H](CCCCN)NC(=O)[C@H](CCC(=O)O)NC(=O)[C@@H](NC(=O)[C@H](CCC(=O)O)NC(=O)[C@@H](NC(=O)[C@H](CCSC)NC(=O)[C@H](CCCCN)NC(=O)[C@H](CCCNC(=N)N)NC(=O)[C@H](CC(C)C)NC(=O)[C@H](CC(C)C)NC(=O)[C@H](Cc1ccc(O)cc1)NC(=O)[C@H](CCCCN)NC(=O)[C@@H]1CCCN1C(=O)[C@H](CC(C)C)NC(=O)[C@H](CC(=O)O)NC(=O)[C@@H](NC(=O)[C@H](CO)NC(=O)[C@@H](NC(=O)[C@@H]1CCCN1C(=O)[C@@H]1CCCN1C(=O)CNC(=O)[C@@H]1CCC(=O)N1)[C@@H](C)CC)[C@@H](C)CC)[C@@H](C)CC)[C@@H](C)CC)[C@@H](C)O)C(N)=O", "note": "[compound 58]", "values": [{"measurement": "Emax", "setting": "CRF1R; read-out: CRF1R Emax", "result": 16, "unit": "%"}, {"measurement": "Emax", "setting": "CRF2R; read-out: CRF2R Emax", "result": 100, "unit": "%"}]}, {"smiles": "CC[C@H](C)[C@H](NC(=O)[C@H](Cc1c[nH]cn1)NC(=O)[C@H](C)NC(=O)[C@H](CC(C)C)NC(=O)[C@H](CC(C)C)NC(=O)[C@H](CCC(N)=O)NC(=O)[C@H](C)NC(=O)[C@H](CC(N)=O)NC(=O)[C@H](CC(N)=O)NC(=O)[C@H](C)NC(=O)[C@H](C)NC(=O)[C@H](CCC(N)=O)NC(=O)[C@H](CCC(N)=O)NC(=O)[C@H](CCCCN)NC(=O)[C@H](CCC(=O)O)NC(=O)[C@H](CCCCN)NC(=O)[C@H](CCC(=O)O)NC(=O)[C@H](CCC(N)=O)NC(=O)[C@H](CCCCN)NC(=O)[C@H](CCC(=O)O)NC(=O)[C@@H](NC(=O)[C@H](CCC(=O)O)NC(=O)[C@@H](NC(=O)[C@@H](NC(=O)[C@H](CCCCN)NC(=O)[C@H](CCCNC(=N)N)NC(=O)[C@H](CC(C)C)NC(=O)[C@H](CC(C)C)NC(=O)[C@H](CCC(N)=O)NC(=O)[C@H](Cc1ccccc1)NC(=O)[C@@H]1CCCN1C(=O)[C@H](CC(C)C)NC(=O)[C@H](CC(=O)O)NC(=O)[C@@H](NC(=O)[C@H](CO)NC(=O)[C@@H](NC(=O)[C@@H]1CCCN1C(=O)[C@@H]1CCCN1C(=O)CNC(=O)[C@@H]1CCC(=O)N1)[C@@H](C)CC)[C@@H](C)CC)C(C)C)[C@@H](C)CC)[C@@H](C)CC)C(N)=O", "note": "[compound 273]", "values": [{"measurement": "EC50", "setting": "CRF1R; CRF1R EC50", "result": "≥ 1000", "unit": "nM"}, {"measurement": "Emax", "setting": "CRF1R; read-out: CRF1R Emax", "result": 59.3, "unit": "%"}, {"measurement": "EC50", "setting": "CRF2R", "result": 31.3, "unit": "nM"}, {"measurement": "Emax", "setting": "CRF2R; read-out: CRF2R Emax", "result": 100, "unit": "%"}]}, {"smiles": "CC[C@H](C)[C@H](N)C(=O)N[C@H](C(=O)N[C@@H](CC(C)C)C(=O)N[C@@H](CO)C(=O)N[C@@H](CC(C)C)C(=O)N[C@@H](CC(=O)O)C(=O)N[C@H](C(=O)N1CCC[C@H]1C(=O)N[C@H](C(=O)NCC(=O)N[C@@H](CC(C)C)C(=O)N[C@@H](CC(C)C)C(=O)N[C@@H](CCC(N)=O)C(=O)N[C@H](C(=O)N[C@@H](CC(C)C)C(=O)N[C@@H](CC(C)C)C(=O)N[C@@H](CCC(=O)O)C(=O)N[C@@H](CCC(N)=O)C(=O)N[C@@H](C)C(=O)N[C@@H](CCCNC(=N)N)C(=O)N[C@@H](C)C(=O)N[C@@H](CCCNC(=N)N)C(=O)N[C@@H](C)C(=O)N[C@@H](C)C(=O)N[C@@H](CCCNC(=N)N)C(=O)N[C@@H](CCC(=O)O)C(=O)N[C@@H](CCC(N)=O)C(=O)N[C@@H](C)C(=O)N[C@H](C(=O)N[C@H](C(=O)N[C@@H](CC(N)=O)C(=O)N[C@@H](C)C(=O)N[C@@H](CCCNC(=N)N)C(=O)N[C@H](C(=O)N[C@@H](CC(C)C)C(=O)N[C@@H](C)C(=O)N[C@@H](CCCNC(=N)N)C(=O)N[C@H](C(N)=O)C(C)C)[C@@H](C)CC)[C@@H](C)O)[C@@H](C)O)[C@@H](C)CC)[C@@H](C)CC)C(C)C)C(C)C", "note": "[hUroII, human urocortin II, reference compound]", "values": [{"measurement": "Emax", "setting": "CRF1R; Emax, read-out: CRF1R (Emax %)", "result": 9, "unit": "%"}, {"measurement": "Emax", "setting": "CRF2R; Emax, read-out: CRF2R (Emax %)", "result": 98, "unit": "%"}]}, {"smiles": "CC[C@H](C)[C@H](NC(=O)[C@@H](NC(=O)[C@H](CC(=O)O)NC(=O)[C@H](CC(C)C)NC(=O)[C@H](CC(C)C)NC(=O)[C@H](CC(C)C)NC(=O)[C@H](C)NC(=O)[C@H](CC(N)=O)NC(=O)[C@H](CC(N)=O)NC(=O)[C@H](C)NC(=O)[C@H](C)NC(=O)[C@H](CCC(N)=O)NC(=O)[C@H](CCC(N)=O)NC(=O)[C@H](CCCCN)NC(=O)[C@H](CCC(=O)O)NC(=O)[C@H](CCCCN)NC(=O)[C@H](CCC(=O)O)NC(=O)[C@H](CCC(N)=O)NC(=O)[C@H](CCCCN)NC(=O)[C@H](CCC(=O)O)NC(=O)[C@@H](NC(=O)[C@H](CCC(=O)O)NC(=O)[C@@H](NC(=O)[C@H](CCSC)NC(=O)[C@H](CCCCN)NC(=O)[C@H](CCCNC(=N)N)NC(=O)[C@H](CC(C)C)NC(=O)[C@H](CC(C)C)NC(=O)[C@H](Cc1ccc(O)cc1)NC(=O)[C@H](Cc1ccccc1)NC(=O)[C@@H]1CCCN1C(=O)[C@H](CC(C)C)NC(=O)[C@H](CC(=O)O)NC(=O)[C@@H](NC(=O)[C@H](CO)NC(=O)[C@@H](NC(=O)[C@@H]1CCCN1C(=O)[C@@H]1CCCN1C(=O)CNC(=O)[C@@H]1CCC(=O)N1)[C@@H](C)CC)[C@@H](C)CC)[C@@H](C)CC)[C@@H](C)CC)[C@@H](C)O)C(N)=O", "note": "[compound 230]", "values": [{"measurement": "Emax", "setting": "CRF1R; read-out: CRF1R Emax", "result": 100, "unit": "%"}, {"measurement": "Emax", "setting": "CRF2R; read-out: CRF2R Emax", "result": 100, "unit": "%"}]}, {"smiles": "CC[C@H](C)[C@H](NC(=O)[C@@H](NC(=O)[C@H](CC(=O)O)NC(=O)[C@H](CC(C)C)NC(=O)[C@H](CC(C)C)NC(=O)[C@H](CC(C)C)NC(=O)[C@H](CCCNC(=N)N)NC(=O)[C@H](CC(N)=O)NC(=O)[C@H](CC(N)=O)NC(=O)[C@H](C)NC(=O)[C@H](C)NC(=O)[C@H](CCC(N)=O)NC(=O)[C@H](CCC(N)=O)NC(=O)[C@H](CCCCN)NC(=O)[C@H](CCC(=O)O)NC(=O)[C@H](CCCCN)NC(=O)[C@H](CCC(=O)O)NC(=O)[C@H](CCC(N)=O)NC(=O)[C@H](CCCCN)NC(=O)[C@H](CCC(=O)O)NC(=O)[C@@H](NC(=O)[C@H](CCC(=O)O)NC(=O)[C@@H](NC(=O)[C@H](CCSC)NC(=O)[C@H](CCCCN)NC(=O)[C@H](CCCNC(=N)N)NC(=O)[C@H](CC(C)C)NC(=O)[C@H](CC(C)C)NC(=O)[C@H](CC(=O)O)NC(=O)[C@@H](NC(=O)[C@@H]1CCCN1C(=O)[C@H](CC(C)C)NC(=O)[C@H](CC(=O)O)NC(=O)[C@@H](NC(=O)[C@H](CO)NC(=O)[C@@H](NC(=O)[C@@H]1CCCN1C(=O)[C@@H]1CCCN1C(=O)CNC(=O)[C@@H]1CCC(=O)N1)[C@@H](C)CC)[C@@H](C)CC)[C@@H](C)CC)[C@@H](C)CC)[C@@H](C)CC)[C@@H](C)O)C(N)=O", "note": "[compound 28]", "values": [{"measurement": "Emax", "setting": "CRF1R; read-out: CRF1R Emax", "result": 2, "unit": "%"}, {"measurement": "Emax", "setting": "CRF2R; read-out: CRF2R Emax", "result": 15, "unit": "%"}]}, {"smiles": "CC[C@H](C)[C@H](NC(=O)[C@H](CCC(=O)O)NC(=O)[C@@H](NC(=O)[C@H](CCSC)NC(=O)[C@H](CCCCN)NC(=O)[C@H](CCCNC(=N)N)NC(=O)[C@H](CC(C)C)NC(=O)[C@H](CC(C)C)NC(=O)[C@H](CCC(N)=O)NC(=O)[C@H](Cc1ccccc1)NC(=O)[C@@H]1CCCN1C(=O)[C@H](CC(C)C)NC(=O)[C@H](CC(=O)O)NC(=O)[C@@H](NC(=O)[C@H](CO)NC(=O)[C@@H](NC(=O)[C@@H]1CCCN1C(=O)[C@@H]1CCCN1C(=O)CNC(=O)[C@@H]1CCC(=O)N1)[C@@H](C)CC)[C@@H](C)CC)[C@@H](C)CC)C(=O)N[C@@H](CCC(=O)O)C(=O)N[C@@H](CCCCN)C(=O)N[C@@H](CCC(N)=O)C(=O)N[C@@H](CCC(=O)O)C(=O)N[C@@H](CCCCN)C(=O)N[C@@H](CCC(=O)O)C(=O)N[C@@H](CCCCN)C(=O)N[C@@H](CCC(N)=O)C(=O)N[C@@H](CCC(N)=O)C(=O)N[C@@H](C)C(=O)N[C@H](C(=O)N[C@@H](CC(N)=O)C(=O)N[C@@H](CC(N)=O)C(=O)N[C@@H](CCCNC(=N)N)C(=O)N[C@@H](CC(C)C)C(=O)N[C@@H](CC(C)C)C(=O)N[C@@H](CC(C)C)C(=O)N[C@@H](C)C(=O)N[C@H](C(=O)N[C@H](C(N)=O)C(C)C)[C@@H](C)O)[C@@H](C)O", "note": "[compound 12]", "values": [{"measurement": "Emax", "setting": "CRF1R; read-out: CRF1R Emax", "result": 73, "unit": "%"}, {"measurement": "Emax", "setting": "CRF2R; read-out: CRF2R Emax", "result": 91, "unit": "%"}]}]}
